{"sequences": {"note": "The chains behind the UniProt entries cited, without tags or fusion partners. Residues count along the entry.", "UniProt G1TDF9, 1-617 limits assumed, entry inferred from the test as described": "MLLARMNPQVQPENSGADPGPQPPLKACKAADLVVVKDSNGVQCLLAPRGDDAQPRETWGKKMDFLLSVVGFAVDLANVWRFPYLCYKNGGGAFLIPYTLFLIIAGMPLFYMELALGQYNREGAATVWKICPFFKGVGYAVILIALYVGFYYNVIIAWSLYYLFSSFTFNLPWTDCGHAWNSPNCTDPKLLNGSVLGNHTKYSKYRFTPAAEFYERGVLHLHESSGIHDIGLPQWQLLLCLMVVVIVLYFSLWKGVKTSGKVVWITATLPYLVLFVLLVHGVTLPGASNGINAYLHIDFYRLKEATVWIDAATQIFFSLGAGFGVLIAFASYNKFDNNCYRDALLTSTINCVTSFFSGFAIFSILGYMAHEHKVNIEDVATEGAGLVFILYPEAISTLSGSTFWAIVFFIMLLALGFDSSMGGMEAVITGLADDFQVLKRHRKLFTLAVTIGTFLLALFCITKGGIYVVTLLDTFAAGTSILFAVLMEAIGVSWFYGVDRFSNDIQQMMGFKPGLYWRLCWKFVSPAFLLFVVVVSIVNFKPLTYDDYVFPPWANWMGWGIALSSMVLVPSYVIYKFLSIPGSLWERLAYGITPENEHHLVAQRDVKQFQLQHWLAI", "UniProt P23977, whole entry": "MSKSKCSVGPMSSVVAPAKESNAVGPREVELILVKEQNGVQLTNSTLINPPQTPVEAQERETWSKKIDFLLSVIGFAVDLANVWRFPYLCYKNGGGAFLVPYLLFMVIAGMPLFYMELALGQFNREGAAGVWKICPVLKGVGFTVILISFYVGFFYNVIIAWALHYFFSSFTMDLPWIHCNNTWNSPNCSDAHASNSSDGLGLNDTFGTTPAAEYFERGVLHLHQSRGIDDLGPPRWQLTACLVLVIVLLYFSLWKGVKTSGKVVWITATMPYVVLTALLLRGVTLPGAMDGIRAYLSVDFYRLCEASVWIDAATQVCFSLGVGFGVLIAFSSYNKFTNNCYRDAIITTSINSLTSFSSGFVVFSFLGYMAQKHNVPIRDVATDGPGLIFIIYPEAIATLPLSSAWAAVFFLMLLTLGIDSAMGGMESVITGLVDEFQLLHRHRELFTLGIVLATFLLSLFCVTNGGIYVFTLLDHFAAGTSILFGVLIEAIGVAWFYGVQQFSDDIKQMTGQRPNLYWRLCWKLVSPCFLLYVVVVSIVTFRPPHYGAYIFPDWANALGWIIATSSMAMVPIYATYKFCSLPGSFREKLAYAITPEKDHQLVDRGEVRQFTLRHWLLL", "UniProt F1LQW0, 1-617 limits assumed, entry inferred from the test as described": "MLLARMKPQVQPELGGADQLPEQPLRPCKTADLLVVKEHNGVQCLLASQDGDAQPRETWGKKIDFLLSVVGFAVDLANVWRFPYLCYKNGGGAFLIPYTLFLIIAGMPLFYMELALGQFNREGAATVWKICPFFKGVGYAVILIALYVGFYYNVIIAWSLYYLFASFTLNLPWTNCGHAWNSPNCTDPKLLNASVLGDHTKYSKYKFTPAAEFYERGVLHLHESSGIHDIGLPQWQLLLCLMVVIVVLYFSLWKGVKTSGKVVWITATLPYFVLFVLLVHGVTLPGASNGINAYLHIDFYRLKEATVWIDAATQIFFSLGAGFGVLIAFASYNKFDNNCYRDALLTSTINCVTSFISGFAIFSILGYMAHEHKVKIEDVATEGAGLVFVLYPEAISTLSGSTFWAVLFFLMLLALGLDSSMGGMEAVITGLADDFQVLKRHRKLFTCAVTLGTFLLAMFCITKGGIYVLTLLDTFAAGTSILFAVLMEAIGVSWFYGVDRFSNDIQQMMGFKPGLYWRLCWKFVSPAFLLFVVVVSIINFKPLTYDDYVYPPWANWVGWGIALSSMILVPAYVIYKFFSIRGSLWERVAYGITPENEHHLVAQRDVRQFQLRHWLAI"}, "source": "ChEMBL document CHEMBL3227960", "about": "“Inhibition of uptake of catecholamines by benzylamine derivatives” (J Med Chem, 1979)", "key": {"Unchecked [1]": {"target": "Unchecked (Oryctolagus cuniculus, UniProt G1TDF9)", "assay": "Inhibition of [3H]norepinephrine reuptake at NET in New Zealand rabbit thoracic aorta incubated for 30 mins prior to [3H]norepinephrine addition measured after 60 mins by scintillation counting analysis", "details": "read-out: I50, strain New Zealand"}, "[2]": {"target": "Sodium-dependent dopamine transporter (Rattus norvegicus, UniProt P23977)", "assay": "Inhibition of [3H]dopamine reuptake at DAT in Sprague-Dawley rat brain striatal synaptosomes incubated for 5 mins prior to [3H]dopamine addition measured after 3 mins by scintillation counting analysis", "details": "read-out: I50, strain Sprague-Dawley"}, "Unchecked [3]": {"target": "Unchecked (Rattus norvegicus, UniProt F1LQW0)", "assay": "Inhibition of [3H]norepinephrine reuptake at NET in Sprague-Dawley rat brain cortical synaptosomes incubated for 5 mins prior to [3H]norepinephrine addition measured after 3 mins by scintillation counting analysis", "details": "read-out: I50, strain Sprague-Dawley"}}}
{"smiles": "CCN(CCCl)Cc1ccccc1C", "values": [{"measurement": "IC50", "setting": "Unchecked [1]", "value": 0.1, "unit": "µM"}, {"measurement": "IC50", "setting": "[2]", "value": 6.09, "unit": "µM"}, {"measurement": "IC50", "setting": "Unchecked [3]", "value": 0.08, "unit": "µM"}]}
